# Measured affinities in a library of Ab-14 light chain variants

The target is the same throughout: PDVDLGDISGINAS, from the HR2 region of SARS-CoV-2 spike.

Each scFv is VH, the linker GGGGSGGGGSGGGGS, VL, as in the parent Ab-14, and differs from it in the CDRs of the light chain only.
VH: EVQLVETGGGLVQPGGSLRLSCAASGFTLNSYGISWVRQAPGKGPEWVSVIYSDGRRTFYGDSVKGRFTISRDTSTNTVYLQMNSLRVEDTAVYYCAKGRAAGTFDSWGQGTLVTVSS
VL: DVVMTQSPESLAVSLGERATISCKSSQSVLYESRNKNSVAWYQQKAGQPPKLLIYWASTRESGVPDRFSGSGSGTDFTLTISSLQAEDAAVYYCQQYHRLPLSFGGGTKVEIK

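Phage display of a naive human antibody library on the peptide gave the parent. This is the validation round: designs drawn from the data on random variants, tested in the same kind of assay. Several design methods are mixed in this list. The scFvs were displayed on barcoded MATa yeast, the peptide on MATalpha yeast. Pairs that bind mate more often; barcode pairs of the diploids are counted by sequencing. Each replicate has its own calibration line, from reference interactions of the BCL2 family. The assay was run in six technical replicates.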

Each variant is given by its three light chain CDRs, as the data file delimits them; those of the parent are KSSQSVLYESRNKNSVA, WASTRES, QQYHRLPLS.
This list holds designs with more than six substitutions.
The read-out is the apparent dissociation constant on a log10 scale (nM): the lower, the stronger.
The mean shown is taken over the replicates in which the pair was detected.
"ND" marks a missing value. The strain was present, yet no cells mated with the target were sequenced in that replicate, which points to weak or no binding.
Values of this round are not directly comparable with the first-round values of the same sequences.
In the paper, a design with two or fewer of six values counts as a poor binder.
The parent sequence was in this pool as ten entries: three were never detected, three once, and four in most replicates, with averages from 0.34 to 2.37.
Empty control strains, which show no peptide, gave a signal in 4% of pairings with all light chain designs; the median was 2.64 and 95% of these signals were weaker than 1.59. No background was subtracted. For each scFv, signals with the empty controls are counted beside the result, with their mean in brackets.

CDR-L1	CDR-L2	CDR-L3	log10 Kd, replicates	log10 Kd (nM), mean	signal with controls
KIGQMVTGESHNKNSIA	QMTTREG	QQYHRLPLS	1.61 / 1.62 / 1.44 / 2.06 / 1.37 / 2.14	1.71	1 of 18 (3.57)
KSMQSMLGESRNKNSVA	WASSRPD	QHYHRLPLS	ND / 2.25 / 0.89 / 1.26 / 1.50 / 0.97	1.38	1 of 18 (1.87)
KISQMVRVGSTLSNSIA	EEVTRAK	QQYHRLPLS	0.46 / 0.49 / 0.73 / 0.39 / 0.44 / 0.67	0.53	0 of 18
KLSQSVLFWGHAINSVA	EMVTREY	QQYDRLPLS	2.33 / ND / ND / ND / 2.26 / 2.48	2.36	0 of 18
KLQQSWEYESRNSNNVA	MGSQREV	QQYHRLPLS	0.05 / -0.09 / -0.12 / -0.21 / -0.17 / -0.01	-0.09	2 of 18 (2.81)
KLQFSWEYESRNKNSVA	SASQREV	QQYHRLPLS	0.93 / 0.52 / 0.41 / 0.59 / 0.36 / 0.09	0.48	1 of 18 (2.50)
KLSQEMEYESRNKNSVA	QASERES	QDYHRLPLS	0.69 / 0.40 / 0.29 / 0.29 / 0.20 / 0.61	0.41	0 of 18
QITQVQQYDAPNTYNVA	DATVSGR	QQYSQLPLI	ND / ND / ND / ND / ND / ND	ND	0 of 18
TIGPMLMTESRNKNNVA	GMQTRER	QQYHRLPLS	-0.08 / -0.06 / -0.09 / -0.24 / -0.12 / 0.27	-0.05	0 of 18
TVSQVHGMLSHNKNSVA	DMNTRGS	QQYDRLPLS	0.75 / ND / 0.29 / 0.13 / -0.55 / 1.41	0.40	0 of 18
MLSQMWGVGSKVSNSVA	QASMRFN	QQYHRLPLI	2.01 / 1.21 / 0.80 / 0.73 / 1.22 / 1.12	1.18	0 of 18
KLTMITGLEKVQTNNVA	EMETREK	QQYNRLPLS	1.67 / 1.22 / ND / 1.73 / 1.74 / 1.51	1.57	0 of 18
TLSYASLLESVKRNNVA	ENSTREQ	QQYDRLPLA	ND / ND / ND / ND / ND / ND	ND	0 of 18
MISMEEAPASQNASSIA	QGGTRAE	QQYNRLPLC	1.47 / 2.17 / 1.25 / 1.09 / 0.94 / 0.98	1.32	0 of 18
KFSQMVNSMSVSHSAVA	EMSTRES	QQYNRLPLA	0.70 / 0.54 / 0.39 / 0.48 / 0.53 / 0.50	0.52	0 of 18
KISMSYRYESQEKNSIA	EMTTREE	QSYHRLPLA	2.12 / 2.28 / 1.09 / 1.28 / 1.06 / 2.31	1.69	0 of 18
MFSQLMMYGSRNYNSVA	QASTRES	QQYHRLPLI	ND / 2.71 / 1.73 / 1.43 / 2.28 / 1.53	1.93	0 of 18
TISGVMQTVSHSKNNVA	EVSMRLE	QQYFRLPLE	1.42 / 0.58 / 0.77 / 0.96 / 0.88 / 0.86	0.91	0 of 18
MMSQVTGLGQRTRNNVA	QTSMRET	QQYDRLPLI	0.66 / 0.40 / 0.39 / 0.32 / 0.36 / 0.67	0.47	2 of 18 (2.33)
KLIQSVAMSSRQKDSIA	DNSTRES	QQYHRLPLS	1.12 / 0.78 / 0.85 / 1.29 / 1.17 / 0.75	0.99	0 of 18
MISQLWNMGQFAINSVA	QASQRNA	QQYDRLPLI	1.10 / 1.47 / 2.03 / 1.37 / 1.72 / 1.12	1.47	0 of 18
KLSQMLMLTGVHKNNVA	ELTMRGN	QQYHRLPLM	ND / 2.10 / ND / ND / ND / ND	2.10	0 of 18
SLAYTQHFGQKGGKAVA	EVQMRCQ	QQYFRLPLG	ND / ND / 3.19 / ND / ND / ND	3.19	1 of 18 (0.64)
KIGMTLNQVYEKANNVA	DLVERVN	QQYHRLPLS	0.08 / -0.35 / -0.32 / -0.67 / -0.20 / -0.29	-0.29	0 of 18
KITGQYRYEQLSKNSIA	EAQTRLK	QQYHRLPLS	0.20 / 0.19 / 0.39 / 0.30 / 0.36 / 0.59	0.34	4 of 18 (2.41)
QIAMEMYHGLNDNQNIA	DAMTYIK	QQYSRLPLF	ND / ND / ND / ND / ND / ND	ND	1 of 18 (2.02)
SIRAVGCDWQRNHSNIA	DATQIED	QQYDMLPLS	ND / ND / 1.57 / 3.64 / 2.68 / ND	2.63	1 of 18 (1.48)
HISPSFMVESKLKNSVA	QTETRES	QQYDRLPLS	0.53 / 0.61 / 0.06 / -0.02 / 0.10 / 0.20	0.25	1 of 18 (2.38)
KLSMVTEYESRNKNNVA	DLTTRGS	QDYHRLPLS	-0.19 / -0.09 / -0.34 / -0.44 / -0.09 / 0.05	-0.18	0 of 18
KIGTTLNQLLHQKNNVA	DLVMREN	QQYHRLPLS	ND / 0.73 / 0.11 / 0.27 / 0.42 / 0.59	0.42	0 of 18
KISQMVNFESTHVNAVA	QMSTREE	QQYHRLPLS	0.21 / 0.19 / 0.97 / 0.35 / 0.34 / 0.01	0.34	0 of 18
NISHFMDVTAKHNNNVA	EMTMREN	QQYHHLPLS	1.74 / 1.09 / 0.78 / 1.18 / 0.83 / 1.68	1.22	1 of 18 (3.17)
TISQMTSLFSQSINNVA	EVSTREK	QQYDRLPLI	0.48 / 1.23 / 0.88 / 0.47 / 0.12 / 1.09	0.71	0 of 18

Top 3 of the variants detected in all replicates, tightest first:

{"CDR-L1": "KIGMTLNQVYEKANNVA", "CDR-L2": "DLVERVN", "CDR-L3": "QQYHRLPLS", "log10 Kd, replicates": "0.08 / -0.35 / -0.32 / -0.67 / -0.20 / -0.29", "log10 Kd (nM), mean": "-0.29", "signal with controls": "0 of 18"}
{"CDR-L1": "KLSMVTEYESRNKNNVA", "CDR-L2": "DLTTRGS", "CDR-L3": "QDYHRLPLS", "log10 Kd, replicates": "-0.19 / -0.09 / -0.34 / -0.44 / -0.09 / 0.05", "log10 Kd (nM), mean": "-0.18", "signal with controls": "0 of 18"}
{"CDR-L1": "KLQQSWEYESRNSNNVA", "CDR-L2": "MGSQREV", "CDR-L3": "QQYHRLPLS", "log10 Kd, replicates": "0.05 / -0.09 / -0.12 / -0.21 / -0.17 / -0.01", "log10 Kd (nM), mean": "-0.09", "signal with controls": "2 of 18 (2.81)"}

Reference: Li et al. 2023, doi:10.1038/s41467-023-39022-2. File: FLAb, binding data.